Among the data in ChEMBL document CHEMBL1141702 (Bioorg Med Chem Lett, 2008) are Ratio Ki and Ki values, retold here.

Chains of the proteins cited; added tags and fusions are not shown.
UniProt Q60492, whole entry: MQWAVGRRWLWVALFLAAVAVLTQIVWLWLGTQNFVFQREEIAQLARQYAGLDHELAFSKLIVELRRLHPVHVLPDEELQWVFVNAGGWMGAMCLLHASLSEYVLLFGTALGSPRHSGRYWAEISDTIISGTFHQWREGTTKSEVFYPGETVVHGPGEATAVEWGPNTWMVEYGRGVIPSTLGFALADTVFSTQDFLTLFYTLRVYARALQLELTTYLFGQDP

SMILES strings stand for the structures.

The species entered for assay [1] is Rattus norvegicus. The assay can be described thus: Selectivity ratio of Ki for rat brain stem SERT to Ki for rat striatum DAT. It is filed as tissue-based.
The species named for assay [2] is Rattus norvegicus. Briefly: Selectivity ratio of Ki for rat brain stem SERT to Ki for rat frontal cortex NET. It is filed as tissue-based.
A short description of assay [3]: Selectivity ratio of Ki for rat brain stem SERT to Ki for guinea pig brain sigma 1 receptor.
Assay [4] addresses Sigma non-opioid intracellular receptor 1 (Cavia porcellus, UniProt Q60492). The assay can be described thus: Displacement of [3H](+)-pentazocine from sigma 1 receptor in guinea pig brain membrane. It is filed as cell membranes. The essentials: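 Tissue was previously frozen guinea pig brain minus cerebellum, incubated 120 min at 25 °C. Ki values derived from competition binding.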
In general terms: Loss of bound radioactivity is the signal in a displacement assay; it reports binding, not function.

With `CC(=O)OC(CCN1CCN(CCCN(c2ccc(F)cc2)c2ccc(F)cc2)CC1)c1ccccc1` (centres undefined), the Ratio Ki was 48 in assay [1], 231 in assay [2] and 13 in assay [3].

As to `O=C(CCCc1ccccc1)OC(CCN1CCN(CCCN(c2ccc(F)cc2)c2ccc(F)cc2)CC1)c1ccccc1` (centres undefined), the Ratio Ki in assay [1] was 43; in assay [2], 248; in assay [3], 5.

The term Ki denotes a dissociation constant, usually derived from enzyme kinetics or from competition with a known ligand. Turning to `OC(CCN1CCN(CCCN(c2ccc(F)cc2)c2ccc(F)cc2)CC1)c1ccccc1` (racemic), in assay [4], the affinity corresponds to a Ki of 45 nM.

On to `C=CC(=O)OC(CCN1CCN(CCCN(c2ccc(F)cc2)c2ccc(F)cc2)CC1)c1ccccc1` (centres undefined), for which the results for the Ratio Ki in assay [1], in assay [2] and in assay [3] were 47, 291 and 13, respectively.

With `C=CC(=O)O[C@@H](Cc1ccccc1)CN1CCN(CCCN(c2ccc(F)cc2)c2ccc(F)cc2)CC1`, the Ratio Ki in assay [1] stood at 202; in assay [2], 248; in assay [3] it was 14.

On to `O[C@@H](Cc1ccccc1)CN1CCN(CCCN(c2ccc(F)cc2)c2ccc(F)cc2)CC1`, for which the Ratio Ki in assay [1] is 453; in assay [2], 445; in assay [3], 16.

Consider `O[C@H](Cc1ccccc1)CN1CCN(CCCN(c2ccc(F)cc2)c2ccc(F)cc2)CC1`, for which the values for the Ratio Ki in assay [1], in assay [2] and in assay [3] were 97, 393 and 6, respectively.
